# Reference: US20100144645A1, “COMPOSITIONS AND METHODS FOR ENHANCING […] POTENCY OF […]-COMPOUNDS, A[…] ADVERSE SIDE EFFECTS, AND […] ABUSE” (SHIRE LLC, priority 2006, published 2010)
# Experiments:
# [1] = Intranasal bioavailability of hydrocodone conjugates; conditions: rats, relative to hydrocodone
# [2] = Oral bioavailability of hydrocodone conjugates (plasma hydrocodone plus hydromorphone); conditions: rats, relative to hydrocodone
Substance,bioavailabiltty (% HC) IN AUC [1],bioavailabiltty (% HC) IN Cmax [1],bioavailabiltty (% HC) oral AUC [2],bioavailabiltty (% HC) oral Cmax [2]
Gly-Gly-Leu-Hydrocodone [Gly-Gly-Leu-HC],77 % HC,62 % HC,82 % HC,126 % HC
(d)-Lys-(1)-Lys-Ile-Hydrocodone [(d)Lys(I)Lys-Ile-HC],41 % HC,54 % HC,141 % HC,174 % HC
